# Measured values reported in PubChem BioAssay (NCI).
#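 Protocol summary: plate cells (96-well), add compound at 5 concentrations, incubate 48 h, interpolate endpoints linearly. GI50 = concentration required for 50% inhibition of growth. TGI marks complete inhibition of growth.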
# Experiments:
# Experiment in all cases: NCI tumour cell line growth inhibition, 48 h
# 786-0 renal = test system: 786-0 renal
# A549 NSCLC = test system: A549 NSCLC
# ACHN renal = test system: ACHN renal
# BT-549 breast = test system: BT-549 breast
# CAKI-1 renal = test system: CAKI-1 renal
# CCRF-CEM leukemia = test system: CCRF-CEM leukemia
# COLO 205 colon = test system: COLO 205 colon
# DU-145 prostate = test system: DU-145 prostate
# EKVX NSCLC = test system: EKVX NSCLC
# HCC-2998 colon = test system: HCC-2998 colon
# HCT-116 colon = test system: HCT-116 colon
# HCT-15 colon = test system: HCT-15 colon
# HL-60(TB) leukemia = test system: HL-60(TB) leukemia
# HOP-62 NSCLC = test system: HOP-62 NSCLC
# HOP-92 NSCLC = test system: HOP-92 NSCLC
# HS 578T breast = test system: HS 578T breast
# HT29 colon = test system: HT29 colon
# IGROV1 ovarian = test system: IGROV1 ovarian
# K-562 leukemia = test system: K-562 leukemia
# KM12 colon = test system: KM12 colon
# LOX IMVI melanoma = test system: LOX IMVI melanoma
# M14 melanoma = test system: M14 melanoma
# MALME-3M melanoma = test system: MALME-3M melanoma
# MCF7 breast = test system: MCF7 breast
# MDA-MB-231 breast = test system: MDA-MB-231 breast
# MDA-MB-435 = test system: MDA-MB-435
# MDA-N = test system: MDA-N
# MOLT-4 leukemia = test system: MOLT-4 leukemia
# NCI-H226 lung = test system: NCI-H226 lung
smiles,measurement,setting,value
FC(F)(F)c1cccc(NC2=NCC(CI)S2)c1 (stereo not drawn),GI50,786-0 renal,69.9 µM
same,TGI,786-0 renal,> 100 µM
same,GI50,A549 NSCLC,> 100 µM
same,TGI,A549 NSCLC,> 100 µM
same,GI50,ACHN renal,> 100 µM
same,TGI,ACHN renal,> 100 µM
same,GI50,BT-549 breast,76.9 µM
same,TGI,BT-549 breast,> 100 µM
same,GI50,CAKI-1 renal,63.5 µM
same,TGI,CAKI-1 renal,> 100 µM
same,GI50,CCRF-CEM leukemia,20.1 µM
same,TGI,CCRF-CEM leukemia,47.4 µM
same,GI50,COLO 205 colon,> 100 µM
same,TGI,COLO 205 colon,> 100 µM
same,GI50,DU-145 prostate,> 100 µM
same,TGI,DU-145 prostate,> 100 µM
same,GI50,EKVX NSCLC,> 100 µM
same,TGI,EKVX NSCLC,> 100 µM
same,GI50,HCC-2998 colon,96.5 µM
same,TGI,HCC-2998 colon,> 100 µM
same,GI50,HCT-116 colon,92 µM
same,TGI,HCT-116 colon,> 100 µM
same,GI50,HCT-15 colon,54.5 µM
same,TGI,HCT-15 colon,> 100 µM
same,GI50,HL-60(TB) leukemia,20.3 µM
same,TGI,HL-60(TB) leukemia,40.2 µM
same,GI50,HOP-62 NSCLC,> 100 µM
same,TGI,HOP-62 NSCLC,> 100 µM
same,GI50,HOP-92 NSCLC,37.1 µM
same,TGI,HOP-92 NSCLC,94.2 µM
same,GI50,HS 578T breast,> 100 µM
same,TGI,HS 578T breast,> 100 µM
same,GI50,HT29 colon,67.1 µM
same,TGI,HT29 colon,> 100 µM
same,GI50,IGROV1 ovarian,> 100 µM
same,TGI,IGROV1 ovarian,> 100 µM
same,GI50,K-562 leukemia,57.5 µM
same,TGI,K-562 leukemia,> 100 µM
same,GI50,KM12 colon,> 100 µM
same,TGI,KM12 colon,> 100 µM
same,GI50,LOX IMVI melanoma,19.9 µM
same,TGI,LOX IMVI melanoma,64.8 µM
same,GI50,M14 melanoma,> 100 µM
same,TGI,M14 melanoma,> 100 µM
same,GI50,MALME-3M melanoma,> 100 µM
same,TGI,MALME-3M melanoma,> 100 µM
same,GI50,MCF7 breast,73.9 µM
same,TGI,MCF7 breast,> 100 µM
same,GI50,MDA-MB-231 breast,79.9 µM
same,TGI,MDA-MB-231 breast,> 100 µM
same,GI50,MDA-MB-435,> 100 µM
same,TGI,MDA-MB-435,> 100 µM
same,GI50,MDA-N,> 100 µM
same,TGI,MDA-N,> 100 µM
same,GI50,MOLT-4 leukemia,67 µM
same,TGI,MOLT-4 leukemia,> 100 µM
same,GI50,NCI-H226 lung,> 100 µM
same,TGI,NCI-H226 lung,> 100 µM
